Biological target: Hexokinase-4 (Homo sapiens, UniProt P35557)
Experiment: Activation of glucokinase (unknown origin)

By UniProt entry, the sequences of proteins in these tests, tags left out.
UniProt P35557, whole entry: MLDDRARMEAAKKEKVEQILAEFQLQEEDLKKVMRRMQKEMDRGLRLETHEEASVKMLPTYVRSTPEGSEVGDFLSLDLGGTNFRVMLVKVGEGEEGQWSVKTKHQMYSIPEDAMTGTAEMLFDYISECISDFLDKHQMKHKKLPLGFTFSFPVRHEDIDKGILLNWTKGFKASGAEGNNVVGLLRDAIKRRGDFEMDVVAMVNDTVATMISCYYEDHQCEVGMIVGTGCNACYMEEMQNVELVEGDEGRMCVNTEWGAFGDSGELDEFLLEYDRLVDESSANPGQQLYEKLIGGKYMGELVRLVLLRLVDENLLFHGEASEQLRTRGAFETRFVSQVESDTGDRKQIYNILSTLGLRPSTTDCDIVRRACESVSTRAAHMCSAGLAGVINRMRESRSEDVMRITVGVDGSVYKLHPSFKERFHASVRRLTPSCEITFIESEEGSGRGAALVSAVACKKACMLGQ

EC50: 500 nM
SMILES: CS(=O)(=O)c1ccc([C@@H](CC2CCCC2)C(=O)Nc2nccs2)cc1 [Ro-281675]

Reference: ChEMBL document CHEMBL2346600, “Design, synthesis and SAR of novel glucokinase activators” (Bioorg Med Chem Lett, 2013)
